Test results taken from patent US20230057788A1, “METHOD OF TREATING CHRONIC MYELOID LEUKEMIA USING PEGYLATED INTERFERON AND TYROSINE KINASE INHIBITOR” (PharmaEssentia Corporation, priority 2021, published 2023).

How the values were obtained:
[1] = Nordic CML study group; imatinib in combination with peginterferon alfa-2b; cited from earlier work
[2] = system: BCR-ABL1 transcripts; assay: Phase 1 study: molecular response, real-time PCR monitoring of BCR-ABL1 transcripts in CML patients; format: in vivo, human; settings: added to imatinib
[3] = human, in vivo
[4] = at final visit (1 month after last ropeginterferon alpha-2b)

In the case of peginterferon alfa-2b, the “Discontinuation rate in the combination arm” value [1] is listed as 60%.
With ropeginterferon alfa-2b the “Percent of patients with decrease in BCR-ABL1” value ([2]; after 12 months to final visit) was “(87.5%)”, the “Number of patients with decrease in BCR-ABL1” value ([2]; after 12 months) was 8/8^a and the “Number of patients with molecular remission <4.5” value ([2]; after 12 months) was “One”. For the same substance, the “Percent of patients with decrease in BCR-ABL1” value ([2]; after 12 months) was “(100%)”, the “Percent of patients with molecular remission <4.5” value ([2]; after 12 months) was “(12.5%)” and the “BCR ABL1 transcript levels compared to the screening visit” value ([2]; at 12 months as well as at the final visit, p=0.012) was “significantly lower”. The “Number of patients with an MR 4.5” value ([2]; at 18 months, p=0.0125) was “four”, the “Number of patients with decrease in BCR-ABL1” value [2, 4] was 8/9 and the “Number of patients with molecular remission <4.5” value [2, 4] was 4/9. For the same substance, the “Percent of patients with decrease in BCR-ABL1” value [2, 4] was “(88.9%)”, the “Percent of patients with molecular remission <4.5” value [2, 4] was “(44.4%)” and the “Difference of the BCR-ABL1 transcript level between 12 and 18 months of treatment” value ([2]; p=0.128) was “No significant difference”. For the same substance, the “ALAT elevated, number of patients” value [3] was 5, the “Adverse events grade 4 or 5” value [3] was “^bAdverse event terms are summarized MedDRA preferred terms; no events grade 4 or 5” and the “Anemia, percent of patients” value [3] was “(58%)”. For the same substance, the “Asthenia, percent of patients” value [3] was “(8%)”, the “Dizziness, percent of patients” value [3] was “(17%)” and the “Fatigue, percent of patients” value [3] was “(42%)”. For the same substance, the “GGT elevated, number of patients” value [3] was 4, the “Headache, percent of patients” value [3] was “(42%)” and the “Musculoskeletal pain, percent of patients” value [3] was “(25%)”. For the same substance, the “Neutropenia, number of patients” value [3] was 6, the New adverse events [3] was “No new AEs were reported” and the “Patients in whom treatment had to be discontinued” value [3] was 25%. For the same substance, the “Patients who completed the study treatment according to protocol” value [3] was 75%, the “Patients with recurrent grade 3 neutropenia (DLT) leading to discontinuation” value [3] was “One” and the “Thrombocytopenia, percent of patients” value [3] was “(75%)”.

Marks after values point to notes of the source that are not given here.
